One series addresses Sirt6 (Homo sapiens, UniProt Q8N6T7). As to conditions: Cerep/Eurofins Sirt6 assay, Michishita et al., 2008; cited from earlier work.
The next series addresses Hst2 (Saccharomyces cerevisiae, UniProt P53686). The following applies: Khan and Lewis, 2005; cited from earlier work.
For another series, the system named is Vero cells. The series can be described thus: Toxicity grade on Vero cell monolayers at end of plaque assay.

Amino acid sequences for entries named in this document (tags omitted).
UniProt Q8N6T7, whole entry: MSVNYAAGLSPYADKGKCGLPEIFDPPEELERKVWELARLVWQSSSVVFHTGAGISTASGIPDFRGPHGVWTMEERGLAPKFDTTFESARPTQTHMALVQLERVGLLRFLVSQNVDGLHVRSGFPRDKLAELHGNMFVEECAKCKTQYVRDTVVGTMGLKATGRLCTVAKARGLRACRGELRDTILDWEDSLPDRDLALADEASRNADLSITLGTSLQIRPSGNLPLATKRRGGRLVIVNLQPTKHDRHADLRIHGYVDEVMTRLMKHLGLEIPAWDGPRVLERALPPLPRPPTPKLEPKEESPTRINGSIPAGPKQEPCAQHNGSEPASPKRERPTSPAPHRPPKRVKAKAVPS
UniProt P53686, whole entry: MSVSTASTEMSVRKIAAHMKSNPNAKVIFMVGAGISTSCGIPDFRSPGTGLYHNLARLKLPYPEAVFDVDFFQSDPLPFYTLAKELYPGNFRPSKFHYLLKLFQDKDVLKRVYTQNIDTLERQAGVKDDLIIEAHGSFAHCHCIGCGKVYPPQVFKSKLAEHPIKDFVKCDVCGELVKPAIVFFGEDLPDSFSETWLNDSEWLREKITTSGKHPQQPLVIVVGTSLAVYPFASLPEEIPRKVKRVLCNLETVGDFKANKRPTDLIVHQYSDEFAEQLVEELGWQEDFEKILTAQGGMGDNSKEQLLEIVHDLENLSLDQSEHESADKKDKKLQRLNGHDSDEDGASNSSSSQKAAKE

This is a selection: effects in other tests are not listed, and their absence says nothing.

Consider 5′-adenosine diphosphate ribose, for which the “concentrations at which ADPR inhibits Sirt6 deacetylation activity” value on Sirt6 is recorded as “greater than 1 mM”. Further, on Hst2, the “effect on the deacetylation reaction of Hst2” value was “inhibit”.
With “Adenosine 5′-diphosphoribose Sodium Salt”, the “effect on Vero cell monolayer judged under the microscope prior to fixation” value with Vero cells (3 mg/ml) was “not affected”. Moreover, the “Toxicity Grade on Vero Cells” value in the series on Vero cells (Sample 10 μg/ml), in the series with Vero cells (Sample 30 μg/ml), in the series with Vero cells (Sample 100 μg/ml), in the series with Vero cells (Sample 300 μg/ml), with Vero cells (Sample 1 mg/ml) and in the series on Vero cells (Sample 3 mg/ml) was 0 throughout.
